# Reference: patent US12691111B2, “SETD2 inhibitors and related methods and uses, including combination therapies” (EPIZYME, INC., priority 2020, dated 2026)
# What was measured:
# Experiment in all cases: 7-day co-treatment combination study, CellTiter-Glo, Loewe Volume
# KMS-11 = KMS-11 multiple myeloma cells, 7-day co-treatment with Cpd. No. 15
# KMS34 = type: cell-based; details: KMS34 multiple myeloma cells, 7-day co-treatment with Cpd. No. 15
# Z138 = type: cell-based; details: Z138 mantle cell lymphoma cells, 7-day co-treatment with Cpd. No. 15
# RPMI-8226 = type: cell-based; details: RPMI-8226 multiple myeloma cells, 7-day co-treatment with Cpd. No. 15
# JEKO1 = type: cell-based; details: JEKO1 mantle cell lymphoma cells, 7-day co-treatment with Cpd. No. 15
# JVM2 = type: cell-based; details: JVM2 mantle cell lymphoma cells, 7-day co-treatment with Cpd. No. 15
smiles,measurement,setting,value
"CC(C)C[C@H](NC(=O)[C@H](Cc1ccccc1)NC(=O)c1cnccn1)B(O)O [Bortezomib, bortezomib]",Combination effect (Loewe Volume class) of Cpd. No. 15 with combination partner,KMS-11,Additivity (between 1 and −1: additivity)
same,Combination effect (Loewe Volume class) of Cpd. No. 15 with combination partner,KMS34,Additivity (between 1 and −1: additivity)
same,Combination effect (Loewe Volume class) of Cpd. No. 15 with combination partner,Z138,Additivity (between 1 and −1: additivity)
same,Combination effect (Loewe Volume class) of Cpd. No. 15 with combination partner,RPMI-8226,Additivity (between 1 and −1: additivity)
same,Combination effect (Loewe Volume class) of Cpd. No. 15 with combination partner,JEKO1,Additivity (between 1 and −1: additivity)
same,Combination effect (Loewe Volume class) of Cpd. No. 15 with combination partner,JVM2,Additivity (between 1 and −1: additivity)
